Earlier results, collected in article PMC10269403 (Journal of medicinal chemistry, 2023).

Settings: human, in vivo; cited from earlier work

Structure (SMILES): O=C1Nc2ccc(Cl)cc2[C@@](C#CC2CC2)(C(F)(F)F)O1 [EFV, efavirenz]
- median CSF levels: 35 to 90 nM
